Measured values published in patent US5523308A, “Peptidyl heterocycles useful in the treatment of thrombin related disorders” (priority 1995, dated 1996).

Target: T1, human alpha-thrombin (Homo sapiens, UniProt P00734)
T1 construct: commercial human alpha-thrombin (American Diagnostica); purchased American Diagnostica
Experiment: Thrombin-catalyzed hydrolysis of chromogenic substrate Spectozyme TH (in vitro enzyme assay)
Type: biochemical

SMILES: CC1CNc2c(cccc2S(=O)(=O)N[C@@H](CCCNC(=N)N)C(=O)N2CC[C@@H](C)C[C@@H]2C(=O)O)C1 (stereo partly shown) [Argatroban, reference compound]
- Ki: 10 nM
